Experimental data reported in PubChem BioAssay (Tox21).
Where “and” joins values, the source holds several entries; their conditions need not be identical. Equal entries are not always repeated. For some assays here: Most of the hits are listed elsewhere, so they are rarer here than in the full data. Inconclusive results are not listed. The entries are a selection whose mix differs from that of the whole data set. A structure can be active in one record and inactive in another. Calls of active or inactive are those of the source. Unless noted, the call rests on the fitted dose curve; in most records, active means well fitted curve in the direction sought with a large enough effect in the repeat runs; inconclusive means weak or mixed curves; inactive means no such curve, though single readings can be large; an effect the other way counts as inactive or inconclusive.

Sequences of proteins named here, by UniProt entry; tags and fusion partners are left off. A change or cut given only in a name is not applied to a line headed by its entry.
UniProt Q92731, whole entry, looked up: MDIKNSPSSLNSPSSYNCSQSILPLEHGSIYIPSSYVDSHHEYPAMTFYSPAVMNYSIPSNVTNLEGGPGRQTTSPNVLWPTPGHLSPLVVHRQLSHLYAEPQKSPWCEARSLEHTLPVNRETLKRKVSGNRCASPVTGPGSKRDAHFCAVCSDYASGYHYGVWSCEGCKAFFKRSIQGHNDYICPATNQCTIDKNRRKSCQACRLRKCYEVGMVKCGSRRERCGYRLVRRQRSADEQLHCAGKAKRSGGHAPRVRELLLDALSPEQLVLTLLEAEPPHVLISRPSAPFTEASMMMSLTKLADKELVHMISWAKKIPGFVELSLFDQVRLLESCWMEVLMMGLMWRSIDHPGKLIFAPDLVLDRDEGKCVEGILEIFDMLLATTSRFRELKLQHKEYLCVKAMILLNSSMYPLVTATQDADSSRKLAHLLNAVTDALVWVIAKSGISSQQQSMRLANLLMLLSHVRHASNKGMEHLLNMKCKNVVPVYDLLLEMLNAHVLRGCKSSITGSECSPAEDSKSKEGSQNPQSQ
UniProt P03372, whole entry, looked up: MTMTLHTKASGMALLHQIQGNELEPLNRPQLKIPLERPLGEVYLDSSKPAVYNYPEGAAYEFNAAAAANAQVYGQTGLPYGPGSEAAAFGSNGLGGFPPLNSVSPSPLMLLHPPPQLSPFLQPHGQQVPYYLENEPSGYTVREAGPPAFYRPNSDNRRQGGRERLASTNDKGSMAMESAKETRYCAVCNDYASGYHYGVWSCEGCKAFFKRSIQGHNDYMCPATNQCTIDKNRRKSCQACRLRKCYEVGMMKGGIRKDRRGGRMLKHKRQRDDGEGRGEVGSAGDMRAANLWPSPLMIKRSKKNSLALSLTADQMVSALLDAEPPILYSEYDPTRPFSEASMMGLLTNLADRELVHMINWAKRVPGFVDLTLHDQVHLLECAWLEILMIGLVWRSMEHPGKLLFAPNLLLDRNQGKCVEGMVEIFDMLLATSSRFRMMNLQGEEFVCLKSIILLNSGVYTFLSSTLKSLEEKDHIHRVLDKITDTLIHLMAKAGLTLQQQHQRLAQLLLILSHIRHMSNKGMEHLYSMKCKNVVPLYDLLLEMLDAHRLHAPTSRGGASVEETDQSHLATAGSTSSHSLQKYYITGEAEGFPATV
UniProt Q96RI1: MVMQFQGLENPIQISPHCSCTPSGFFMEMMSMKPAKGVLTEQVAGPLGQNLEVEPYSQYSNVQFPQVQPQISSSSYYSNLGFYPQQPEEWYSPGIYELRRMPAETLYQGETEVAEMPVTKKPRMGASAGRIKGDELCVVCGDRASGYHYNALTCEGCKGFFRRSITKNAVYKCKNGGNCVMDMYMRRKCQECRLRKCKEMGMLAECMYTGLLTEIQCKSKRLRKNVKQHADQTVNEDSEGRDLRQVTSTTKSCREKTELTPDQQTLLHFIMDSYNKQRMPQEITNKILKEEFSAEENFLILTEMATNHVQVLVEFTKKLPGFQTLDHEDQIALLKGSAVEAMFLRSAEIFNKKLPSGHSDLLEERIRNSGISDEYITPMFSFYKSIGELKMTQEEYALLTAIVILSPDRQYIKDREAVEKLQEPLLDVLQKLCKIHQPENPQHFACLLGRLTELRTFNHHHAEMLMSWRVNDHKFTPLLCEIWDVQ
UniProt P10275: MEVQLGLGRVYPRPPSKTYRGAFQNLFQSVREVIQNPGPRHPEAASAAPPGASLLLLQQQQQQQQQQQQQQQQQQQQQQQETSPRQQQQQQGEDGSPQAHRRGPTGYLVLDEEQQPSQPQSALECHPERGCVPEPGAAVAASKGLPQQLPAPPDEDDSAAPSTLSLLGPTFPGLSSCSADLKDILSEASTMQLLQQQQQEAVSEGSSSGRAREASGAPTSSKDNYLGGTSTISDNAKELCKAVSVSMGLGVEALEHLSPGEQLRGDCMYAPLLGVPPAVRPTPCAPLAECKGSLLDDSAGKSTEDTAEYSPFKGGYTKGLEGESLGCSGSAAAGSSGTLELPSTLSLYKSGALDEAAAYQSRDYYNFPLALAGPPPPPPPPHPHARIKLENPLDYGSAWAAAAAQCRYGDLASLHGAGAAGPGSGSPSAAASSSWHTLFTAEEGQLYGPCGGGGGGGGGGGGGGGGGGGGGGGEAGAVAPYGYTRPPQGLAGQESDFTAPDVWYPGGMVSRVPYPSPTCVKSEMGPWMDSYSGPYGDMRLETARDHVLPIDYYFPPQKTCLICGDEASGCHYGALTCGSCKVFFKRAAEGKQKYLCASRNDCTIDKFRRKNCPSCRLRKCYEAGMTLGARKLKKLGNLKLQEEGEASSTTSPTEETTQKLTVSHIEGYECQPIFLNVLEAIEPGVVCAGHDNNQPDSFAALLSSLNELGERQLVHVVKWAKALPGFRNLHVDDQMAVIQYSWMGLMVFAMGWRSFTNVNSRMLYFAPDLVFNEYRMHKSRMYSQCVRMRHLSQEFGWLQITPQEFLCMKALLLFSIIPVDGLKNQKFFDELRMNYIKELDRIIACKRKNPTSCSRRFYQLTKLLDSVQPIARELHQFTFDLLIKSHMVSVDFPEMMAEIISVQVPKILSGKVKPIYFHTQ
UniProt P22303: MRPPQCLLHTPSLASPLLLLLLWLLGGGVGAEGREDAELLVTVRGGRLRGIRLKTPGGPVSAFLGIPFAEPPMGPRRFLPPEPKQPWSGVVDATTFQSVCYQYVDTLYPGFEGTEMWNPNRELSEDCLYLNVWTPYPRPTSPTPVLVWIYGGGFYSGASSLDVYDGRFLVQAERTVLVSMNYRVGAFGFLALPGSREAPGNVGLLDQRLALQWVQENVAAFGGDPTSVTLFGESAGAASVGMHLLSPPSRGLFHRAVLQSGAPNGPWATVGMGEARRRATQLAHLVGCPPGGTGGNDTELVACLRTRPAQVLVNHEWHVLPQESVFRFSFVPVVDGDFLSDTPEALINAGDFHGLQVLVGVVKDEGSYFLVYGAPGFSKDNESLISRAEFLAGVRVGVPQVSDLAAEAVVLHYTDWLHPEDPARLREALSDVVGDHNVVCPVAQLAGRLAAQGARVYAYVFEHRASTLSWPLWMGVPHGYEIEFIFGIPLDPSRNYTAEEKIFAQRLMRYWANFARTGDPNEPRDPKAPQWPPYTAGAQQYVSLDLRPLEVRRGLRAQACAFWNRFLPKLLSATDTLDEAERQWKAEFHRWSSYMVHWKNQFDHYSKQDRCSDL

What was measured:
[1] = qHTS assay to identify small molecule agonists of the NFkB signaling pathway (AID 1159509; active means well fitted curve in the direction sought with a large enough effect in the signal ratio in the repeat runs, not every such curve was filed as active; the % refers to the signal ratio); conditions: NFkB-bla ME-180 cells, beta-lactamase FRET ratio, 5 h
How it was run: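 Agonist activity was read as beta-lactamase-driven FRET change (460 and 530 nm emission, 405 nm excitation) following 1.5 hr substrate loading at room temperature. Beforehand, ME-180 NFkB-bla reporter cells were treated with compounds for 5 hr at 37 C.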

[2] = qHTS assay to identify small molecule antagonists of the retinoic acid receptor (RAR) signaling pathway (AID 1159552; further: nearly all actives have a fitted effect of over 50% in size; further: potency means the concentration at half of the fitted maximal effect); conditions: C3RL4 RARE luciferase reporter, retinol-stimulated, 6 h; series mostly up to 92.4 µM
How it was run: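 Antagonism of retinol-induced RARE reporter activity was measured in C3RL4 cells. Exposure to compounds and 1 uM final retinol lasted 6 hr at 37 C, with luminescence as endpoint.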

[3] = molecular target: Estrogen receptor beta (Homo sapiens) (UniProt Q92731); experiment: qHTS assay to identify small molecule antagonists of the estrogen receptor beta (ER-beta) signaling pathway (AID 1259378; active means well fitted inhibition curve with a large enough effect in the signal ratio in the repeat runs, not every such curve was filed as active; the % refers to the signal ratio); conditions: ER-beta-UAS-bla HEK293T, beta-lactamase FRET ratio, 16 h; series mostly up to 92.4 µM
How it was run: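 Antagonist mode: compounds added to beta-lactamase reporter HEK293T ER-beta-UAS cells stimulated with E2 (1nM final), 16 hr at 37C. LiveBLAzer B/G FRET substrate, 2 hours room temperature, fluorescence read-out.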

[4] = molecular target: Estrogen receptor (Homo sapiens) (UniProt P03372); experiment: qHTS assay to identify small molecule agonists of the estrogen receptor alpha (ER-alpha) signaling pathway using the BG1 cell line (AID 743079); conditions: BG1Luc4E2 cells, ERE-luciferase agonist, 22 h; at 70.3 µM (top of the series); further: nearly all actives have a fitted effect of over 20% in size
[5] = molecular target: Estrogen receptor (Homo sapiens) (UniProt P03372); experiment: qHTS assay to identify small molecule agonists of the estrogen receptor alpha (ER-alpha) signaling pathway in the presence of an antagonist (AID 1259383; calls by dose curve; further: top concentration of the series differs between compounds; nearly all actives have a fitted effect of over 15% in size); conditions: VM7Luc4E2 cells, ERE-luciferase, +ICI-182,780, 22 h
[6] = molecular target: Estrogen receptor (Homo sapiens) (UniProt P03372); experiment: qHTS assay to identify small molecule antagonists of the estrogen receptor alpha (ER-alpha) signaling pathway (AID 743069; active means well fitted curve in the direction sought with a large enough effect in the signal ratio in the repeat runs, not every such curve was filed as active; the % refers to the signal ratio); conditions: HEK293 ER-alpha-UAS-bla, beta-lactamase ratio, antagonist mode; at 69.4 µM (top of the series)
[7] = molecular target: Estrogen receptor (Homo sapiens) (UniProt P03372); experiment: qHTS assay to identify small molecule agonists of the estrogen receptor alpha (ER-alpha) signaling pathway (AID 743075; calls by dose curve;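 further: HEK293 GripTite cells with ER-alpha and UAS-driven beta-lactamase reporter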); conditions: HEK293 ER-alpha-UAS-bla, beta-lactamase FRET ratio, 18 h; series mostly up to 70.1 µM
[8] = molecular target: Bile acid receptor (Homo sapiens) (UniProt Q96RI1); experiment: qHTS assay to identify small molecule antagonists of the farnesoid-X-receptor (FXR) signaling pathway (AID 743217; active means well fitted inhibition curve with a large enough effect in the signal ratio in the repeat runs, not every such curve was filed as active; the % refers to the signal ratio); conditions: HEK293T FXR-UAS-bla, beta-lactamase ratio, CDCA-stimulated, 16 h; at 81.1 µM (top of the series) unless noted
How it was run: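 Test compounds are pin-transferred onto FXR-bla HEK 293T cells, then chenodeoxycholic acid is added at 50 uM final. After 16 h at 37 °C, LiveBLAzer B/G substrate is applied for 2 h at room temperature and fluorescence read.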

[9] = molecular target: Bile acid receptor (Homo sapiens) (UniProt Q96RI1); experiment: qHTS assay to identify small molecule agonists of the farnesoid-X-receptor (FXR) signaling pathway (AID 743220; active means well fitted activation curve with a large enough effect in the signal ratio in the repeat runs, not every such curve was filed as active; the % refers to the signal ratio); conditions: HEK293T FXR-UAS-bla, beta-lactamase FRET ratio, 16 h; at 62.6 µM (top of the series) unless noted
[10] = molecular target: Estrogen receptor (Homo sapiens) (UniProt P03372); experiment: qHTS assay to identify small molecule antagonists of the estrogen receptor alpha (ER-alpha) signaling pathway using the BG1 cell line in the presence of 0.1 nM 17-beta-estradiol (AID 1259244); conditions: VM7Luc4E2 (BG1) ERE-luciferase, antagonist mode, 0.1 nM E2, 22 h; series mostly up to 92.4 µM; further: nearly all actives have a fitted effect of over 50% in size
[11] = molecular target: Androgen receptor (Homo sapiens) (UniProt P10275); experiment: qHTS assay to identify small molecule antagonists of the androgen receptor (AR) signaling pathway (AID 743035; active means well fitted inhibition curve with a large enough effect in the signal ratio in the repeat runs, not every such curve was filed as active; the % refers to the signal ratio); conditions: HEK293 AR-UAS-bla, R1881-stimulated, beta-lactamase FRET, 16 h; series mostly up to 58.5 µM
[12] = molecular target: Androgen receptor (Homo sapiens) (UniProt P10275); experiment: qHTS assay to identify small molecule agonists of the androgen receptor (AR) signaling pathway using the MDA cell line (AID 743040; further: nearly all actives have a fitted effect of over 20% in size); conditions: MDA-kb2 AR-luc cells, MMTV luciferase, 16 h, stronger effect = higher value; at 70.3 µM (top of the series) unless noted
[13] = molecular target: Androgen receptor (Homo sapiens) (UniProt P10275); experiment: qHTS assay to identify small molecule antagonists of the androgen receptor (AR) signaling pathway using the MDA cell line (AID 743042; further: nearly all actives have a fitted effect of over 55% in size); conditions: MDA-kb2 AR-luc, MMTV luciferase, R1881 antagonist, 16 h; series mostly up to 70.3 µM
[14] = molecular target: Androgen receptor (Homo sapiens) (UniProt P10275); experiment: qHTS assay to identify small molecule antagonists of the androgen receptor (AR) signaling pathway using the MDA cell line in the presence of 0.5 nM R1881 (AID 1259243); conditions: MDA-kb2 MMTV-luciferase, R1881 0.5 nM, 16 h; series mostly up to 42.5 µM; further: nearly all actives have a fitted effect of over 50% in size
[15] = molecular target: Androgen receptor (Homo sapiens) (UniProt P10275); experiment: qHTS assay to identify small molecule agonists of the androgen receptor (AR) signaling pathway in the presence of an antagonist (AID 1259381; calls by dose curve; further: nearly all actives have a fitted effect of over 15% in size); conditions: MDA-kb2 MMTV-luciferase, AR agonist + nilutamide, 16 h; at 42.5 µM (top of the series)
[16] = molecular target: Acetylcholinesterase (Homo sapiens) (UniProt P22303); experiment: Acetylcholinesterase (AChE) small molecule antagonists: colormetric cell-based qHTS assay (AID 1347395; calls by dose curve; further: nearly all actives have a fitted effect of over 30% in size); conditions: SH-SY5Y cells AChE activity, colorimetric (Ellman); at 52.9 µM (top of the series)
How it was run: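 Homogeneous whole-cell format. SH-SY5Y cells seeded overnight, dosed with compound (30 min, 37 C, 5% CO2), then given DTNB/acetylthiocholine cocktail for 90 min at 37 C; colorimetric signal.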

[17] = molecular target: Acetylcholinesterase (Homo sapiens) (UniProt P22303); experiment: Acetylcholinesterase (AChE) small molecule antagonists: enzyme-based qHTS assay (AID 1347397; calls by dose curve; further: nearly all actives have a fitted effect of over 55% in size); conditions: Potency: AChE enzyme activity inhibition; series mostly up to 53 µM
How it was run: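 Colorimetric DTNB readout of acetylthiocholine hydrolysis, 10 min at room temperature, after 30 min room-temperature exposure of 50 mU/mL recombinant human enzyme to compound; DMSO vehicle control.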

[18] = molecular target: Acetylcholinesterase (Homo sapiens) (UniProt P22303); experiment: Acetylcholinesterase (AChE) small molecule antagonists: fluorescence cell-based qHTS assay (AID 1347398; calls by dose curve; further: nearly all actives have a fitted effect of over 50% in size); conditions: SH-SY5Y cells; Potency: AChE activity; series mostly up to 53.7 µM
How it was run: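 Cellular AChE activity read as thiocholine from acetylthiocholine hydrolysis, detected by Thiolite Green fluorescence at 490/520 nm after 40 min at room temperature. Compounds were pre-incubated 30 min at 37 C on adherent SH-SY5Y cells.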

[19] = molecular target: Acetylcholinesterase (Homo sapiens) (UniProt P22303); experiment: Acetylcholinesterase (AChE) small molecule antagonists: enzyme-based qHTS assay with human liver microsomes (AID 1347399; calls by dose curve; further: nearly all actives have a fitted effect of over 60% in size); conditions: Potency: qHTS inhibition; series mostly up to 53 µM
How it was run: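 Recombinant human AChE (50 mU/mL in the enzyme mix) and human liver microsomes (0.25 mg/mL final) were preincubated with compound and NADPH (0.25 mg/mL final) for 30 min at 37 C. Acetylthiocholine/DTNB was then added; thiocholine was read colorimetrically after 10 min at room temperature.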
On the % scale 0 is the no-effect control and ±100 the full control effect.

C[N+](C)(C)CCOC(=O)C(O)(c1ccccc1)c1ccccc1
inactive: activation ([1]; at 61 µM (top of the series)) 0.175% | Potency [2]

C[N+](C)(C)C
inactive: Potency [2] | Potency [3]

COc1ccc(N)cc1N
inactive: activation [4] -8.89% | activation ([1]; at 61 µM (top of the series)) 0.126% | activation ([1]; at 78.8 µM (top of the series)) 0.257% | activation ([5]; at 42.5 µM (top of the series)) 0.305% | activation ([5]; at 92.4 µM (top of the series)) -13.5%
31.6 µM (active) and inactive: Potency [2]

CN1CC[C@]23c4c5ccc(O)c4O[C@H]2[C@@H](O)C=C[C@H]3[C@H]1C5
inactive: activity, negative = inhibition [6] -11.9% | Potency [7] | activation [4] -5.26% | activity change, negative = inhibition [8] -3.9% | activation [9] -3.29% [at 81.1 µM] | Potency [2] | Potency [10] | Potency [3] | activation ([5]; at 92.4 µM (top of the series)) -0.707%

CC(Cc1ccc(O)cc1)NCC(O)c1cc(O)cc(O)c1 (stereo unspecified)
inactive: Potency [11] | activity change [12] -0.698% | Potency [13] | activation ([1]; at 61 µM (top of the series)) 0.234% | Potency [2] | Potency [14] | activation [15] 4.18% | activity, negative = inhibition [16] 0.139% | Potency [17] | Potency [18] | Potency [19]

CN
inactive: activation ([1]; at 78.8 µM (top of the series)) 0.0956%

O=C1C[C@@H]2OCC=C3CN4CC[C@]56c7ccccc7N1[C@H]5[C@H]2[C@H]3C[C@H]46
inactive: activation ([1]; at 61 µM (top of the series)) 0.497%

CC[N+]1(C)CCCC(OC(=O)C(O)(c2ccccc2)c2ccccc2)C1 (stereo unspecified)
inactive: activation ([1]; at 61 µM (top of the series)) 0.0776% | Potency [2]

COc1c2c(cc3c1OCO3)CCN(C)C2
inactive: activation ([1]; at 61 µM (top of the series)) 0.364% | Potency [2] | Potency [3]

C[N+]12CCC(CC1)C(OC(=O)C(O)(c1ccccc1)c1ccccc1)C2 (stereo unspecified)
inactive: Potency [2]

O=P1(N(CCCl)CCCl)NCCCO1 (stereo unspecified)
inactive: activation ([1]; at 61 µM (top of the series)) 0.0396% and 0.527% | activation ([1]; at 78.8 µM (top of the series)) -0.518% | Potency [3]
